{
  "source": "patent US8518869B2",
  "about": "“Pharmaceutical combined preparation containing a therapeutic protein” (Austria Wirtschaftsservice Gesellschaft m.b.H., priority 2004, dated 2013)",
  "key": {"[1]": {"text": "It is understood that often arrangements must be made also for the storage of the preparation according to the invention so that said preparation will remain stable over an extended period of time. […] Hereby, it is possible to store the low-molecular thiol compound and the nitrosated protein of the preparation according to the invention both in combined and in separate form."}, "[2]": {"test": "in vitro NO-release measured with a porphyrinic microsensor", "conditions": "S—NO—HSA 30 μmol/L with reduced glutathione; n=6; FIG. 2a", "method": "The NO-concentration was measured in vitro."}, "[3]": {"tested_on": "mean arterial pressure (MAP)", "test": "mean arterial pressure in the anaesthetized rabbit model", "type": "in vivo", "conditions": "bolus infusion of 0.1 μmol/kg, with and without continuous infusion of reduced glutathione (2.2 μmol/kg/min), FIG. 1b", "method": "For the purpose of comparison, the effect of a nitrosated serum albumin preparation which was applied without reduced glutathione is shown. The rabbit was anaesthetized, whereby the anaesthesia was initiated with […] (5 mg/kg; bolus) and was maintained with a continuous infusion of […]) and 5 mg of xylasine (5 mg/kg/h), dissolved in physiological saline (5 mL/h), via the vena auricularis. After tracheotomy and intubation, the rabbits were attached to the respirator (Ventilator Harvard Apparatus-[…]) (tidal volume=0.0062×body weight (kg)^1.01, respiration rate=53.5×body weight (kg)^0.26). The mean arterial pressure (MAP) was measured in the arteria femoralis by means of a pressure transducer (amplifier unit-TAM-A and Isotec pressure transducer; Hugo Sachs Elektronik). The results are illustrated in FIGS. 1a-f."}, "[4]": {"tested_on": "collagen-induced platelet aggregation", "test": "collagen-induced platelet aggregation in human plasma rich in thrombocytes (aggregometer, method by Born)", "type": "cell-based", "method": "The platelet aggregation was performed with human plasma rich in thrombocytes (TRP) in a Dual Kanal Chronolog Aggregometer basically according to the method by Born (1969). At the onset of each experiment, the exact dose of collagen was determined for the aggregation induced by collagen (˜1 μg collagen/mL TRP) (95-100% inhibition of the collagen-induced aggregation by 300 μmol/L of acetylsalicylic acid). […] After another minute, aggregation was induced with collagen. Control experiments with collagen alone were carried out after every second to third measurement. The results are illustrated as % aggregation relative to the aggregation induced by collagen (100%) (mean value±standard error). The final concentrations in the aggregation vessel are indicated in the images. In experiments with different thiol- and non-thiol-containing substances (N-acetyl-L-cysteine, ascorbic acid, DL-homocysteine, taurine, L-cysteine), pre-incubation was effected primarily with those substances, in analogy to the trials using reduced glutathione."}},
  "data": [
    {"substance": "albumin: protein derived from plasma or blood, non-nitrosated protein component", "values": [
      {"measurement": "pH-value at which stability in solution is greatest", "setting": "[1]", "value": "6 and 7"}
    ]},
    {"substance": "S-nitroso human serum albumin [S—NO—HSA]", "values": [
      {"measurement": "NO-release, effect of added reduced glutathione", "setting": "[2]", "value": "concentration-dependent potentiation"},
      {"measurement": "mean arterial pressure", "setting": "[3]", "value": "decrease in mean arterial pressure"},
      {"measurement": "inhibition of the collagen-induced aggregation", "setting": "[4]; 2-4 μmol/L, without reduced glutathione", "value": 20, "unit": "%"},
      {"measurement": "inhibition of the collagen-induced platelet aggregation, effect of added reduced glutathione", "setting": "[4]; S—NO—HSA 2-4 μmol/L with reduced glutathione, n=6, FIG. 3a", "value": "dose-dependent potentiation"}
    ]}
  ]
}
